Only a part is listed here, and it is no random draw. Activity calls are given as the source filed them.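 The calls were made as follows: active = mean inhibition over duplicate tests at 10 µM above 50%; inactive = the rest.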
experiment: ASC/caspase-1 reporter retest in S. cerevisiae at one dose, specificity check for NALP1 project (AID 488857); details: S. cerevisiae ASC/Caspase-1, beta-galactosidase luminescence, 24 h; at 10 µM; stronger effect = higher value

| SMILES | inhibition |
| --- | --- |
| CCN1CCC(Nc2cccc(F)c2)CC1 | inactive: 18.5% |

Source: PubChem BioAssay AID488857 (Sanford-Burnham Center for Chemical Genomics, 2010)
